Assay results reported in patent US6528093B1, “Sustained-release preparation” (Takeda Chemical Industries, Ltd., priority 1992, dated 2003).

Assay: Dissolution of peptide acetate in a dichloromethane solution of lactic acid-glycolic acid copolymer
Format: physicochemical
From the text: The particle size distribution and physiologically active peptide A content of the microcapsules were 10 to 90 μm and 2.5% (w/w), respectively.
The particle size distribution and physiologically active peptide A content of the microcapsules were 10 to 90 μm and 3.6% (w/w), respectively.

Measured: dissolution in copolymer/dichloromethane solution

NAcD2Nal-D4ClPhe-D3Pal-Ser-NMeTyr-DLys(Nic)-Leu-Lys(Nisp)-Pro-DAlaNH2 [physiologically active peptide A acetate]
could not be successfully dissolved: 400 mg in 3.6 g lactic acid/glycolic acid=50/50 copolymer, GPC Mw 58,000, end-group Mn 45,000 (RG505-05077), 33.2 g dichloromethane | 400 mg in 3.6 g lactic acid/glycolic acid=75/25 copolymer, GPC Mw 18,000, end-group Mn 30,000 (RG752-15057), 8.0 g dichloromethane | 400 mg in 3.6 g lactic acid/glycolic acid=75/25 copolymer, GPC Mw 58,000, end-group Mn 53,000 (RG755-05019), 21.2 g dichloromethane
